Assay results: US20250340552A1, “COMPOUNDS, COMPOSITIONS AND METHODS OF TREATING DISORDERS” (HOTSPOT THERAPEUTICS, INC., priority 2022, published 2025)

Amino acid sequences for entries named in this document (tags omitted).
UniProt Q13191, whole entry: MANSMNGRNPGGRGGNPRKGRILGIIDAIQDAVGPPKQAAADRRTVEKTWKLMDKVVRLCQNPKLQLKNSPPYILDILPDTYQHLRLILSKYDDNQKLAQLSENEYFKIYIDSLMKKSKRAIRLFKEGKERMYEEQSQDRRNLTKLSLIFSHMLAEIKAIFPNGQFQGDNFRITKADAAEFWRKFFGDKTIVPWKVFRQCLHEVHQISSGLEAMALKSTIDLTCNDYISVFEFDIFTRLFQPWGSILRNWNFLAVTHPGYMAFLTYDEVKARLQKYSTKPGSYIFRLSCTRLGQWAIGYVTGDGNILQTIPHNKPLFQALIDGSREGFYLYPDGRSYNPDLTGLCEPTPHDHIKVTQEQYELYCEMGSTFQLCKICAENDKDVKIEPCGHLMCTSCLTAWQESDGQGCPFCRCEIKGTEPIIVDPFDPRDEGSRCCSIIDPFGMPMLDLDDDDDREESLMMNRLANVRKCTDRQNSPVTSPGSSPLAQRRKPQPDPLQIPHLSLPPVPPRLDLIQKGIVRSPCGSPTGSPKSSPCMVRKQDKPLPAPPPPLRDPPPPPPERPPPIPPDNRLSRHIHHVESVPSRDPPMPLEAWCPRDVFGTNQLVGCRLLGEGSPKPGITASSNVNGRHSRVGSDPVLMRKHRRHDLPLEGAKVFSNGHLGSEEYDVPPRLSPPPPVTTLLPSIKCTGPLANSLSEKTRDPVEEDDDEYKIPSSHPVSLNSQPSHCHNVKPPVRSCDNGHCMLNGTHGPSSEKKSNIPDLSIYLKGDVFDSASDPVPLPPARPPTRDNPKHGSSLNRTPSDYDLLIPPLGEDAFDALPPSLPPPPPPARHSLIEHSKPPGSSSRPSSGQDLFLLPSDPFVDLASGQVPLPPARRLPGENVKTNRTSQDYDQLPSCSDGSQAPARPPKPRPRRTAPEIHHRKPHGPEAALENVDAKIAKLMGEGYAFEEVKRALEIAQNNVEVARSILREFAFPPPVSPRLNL

These molecules were tested against Cbl-B (Homo sapiens, UniProt Q13191) (assay: MSD-based assay for degradation of Cbl-B in THP-1 cells). Conditions: Jurkat cells seeded (heading: THP-1 cells), 24 hours incubation, MSD readout, tested form: formate.
Format: cell-based
Cn1cnnc1[C@@H](c1cccc(-n2cc3c(C(F)(F)F)cc(COCCCN4CCC(CN5CCN(c6ccc7c(c6)CN([C@@H]6CCC(=O)NC6=O)C7=O)CC5)CC4)cn3c2=O)c1)C1CCC1 was tested, and the DC50 was 30 to 300 nM and the Dmax was “B (70 > B >= 50)”. With Cn1cnnc1[C@@H](c1cccc(-n2cc3c(C(F)(F)F)cc(CN4CCC(OCCN5CCC(CN6CCCN(c7ccc8c(c7)CN(C7CCC(=O)NC7=O)C8=O)CC6)CC5)CC4)cn3c2=O)c1)C1CCC1 (stereo partly drawn) the DC50 was 1000 to 10000 nM and the Dmax was “D (30 > D)”. For Cn1cnnc1[C@@H](c1cccc(-n2cc3c(C(F)(F)F)cc(CNCCN4CCC(CN5CCN(c6ccc7c(c6)CN(C6CCC(=O)NC6=O)C7=O)CC5)CC4)cn3c2=O)c1)C1CCC1 (stereo partly drawn), the DC50 was over 10000 nM and the Dmax was “D (30 > D)”. For Cn1cnnc1CC1(c2cccc(-n3cc4c(C(F)(F)F)cc(CN5CCC(COCc6ccc(CN7CCN(c8cccc9c8C(=O)N(C8CCC(=O)NC8=O)C9=O)CC7)cc6)CC5)cn4c3=O)c2)COC1 (stereo not drawn), the DC50 was over 10000 nM and the Dmax was “D (30 > D)”. With CO[C@H]1C[C@](c2cccc(-n3cc4c(C(F)(F)F)cc(CN5CCC(CN(C)C(=O)c6ccc(N7CCN(c8ccc9c(c8)CN([C@H]8CCC(=O)NC8=O)C9=O)CC7)cc6)CC5)cn4c3=O)c2)(c2nncn2C)C1 the DC50 was 30 to 300 nM and the Dmax was “B (70 > B >= 50)”. For Cn1cnnc1CC1(c2cccc(N3Cc4c(cc(CN5CCC(OCCN6CCC(CN7CCN(c8ccc9c(c8)CN([C@@H]8CCC(=O)NC8=O)C9=O)CC7)CC6)CC5)cc4C(F)(F)F)C3=O)c2)COC1, the DC50 was 300 to 1000 nM and the Dmax was “B (70 > B >= 50)”.
